Measurements reported in ChEMBL document CHEMBL4354812, “N-Benzyl/Aryl Substituted Tryptanthrin as Dual Inhibitors of Indoleamine 2,3-Dioxygenase and Tryptophan 2,3-Dioxygenase” (J Med Chem, 2019).

Amino acid sequences for entries named in this document (tags omitted).
UniProt P14902, whole entry, looked up: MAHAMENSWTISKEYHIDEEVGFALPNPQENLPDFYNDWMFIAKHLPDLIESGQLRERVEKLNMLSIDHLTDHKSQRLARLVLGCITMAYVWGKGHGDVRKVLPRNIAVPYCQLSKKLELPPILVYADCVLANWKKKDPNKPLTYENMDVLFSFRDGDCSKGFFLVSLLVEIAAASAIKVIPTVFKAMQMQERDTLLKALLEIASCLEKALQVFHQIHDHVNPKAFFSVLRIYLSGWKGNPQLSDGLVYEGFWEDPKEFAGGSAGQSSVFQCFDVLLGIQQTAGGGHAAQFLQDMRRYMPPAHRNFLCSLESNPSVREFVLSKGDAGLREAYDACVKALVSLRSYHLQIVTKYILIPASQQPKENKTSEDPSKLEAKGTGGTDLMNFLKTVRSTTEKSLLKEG

Biological target: Indoleamine 2,3-dioxygenase 1 (Homo sapiens, UniProt P14902)
Assay: Binding affinity to heme in human IDO1 assessed as Soret band red shift from 405 nm to […] at 375 uM and pH 6.5 under normal atmospheric condition by UV-vis spectroscopy analysis

With `CN1CCN(Cc2ccc3nc4n(c(=O)c3c2)-c2ccc(F)cc2C4=O)CC1` the Activity was “inactive”.

The source made the active and inactive calls. The calls are words filed in the database; no cut-off is given here.
